Earlier results in PMC6263254, “Solid-Phase Synthesis of Arylpiperazine Derivatives and Implementation of the Distributed Drug Discovery (D3) Project in the Search for CNS Agents” (Molecules, 2011).

Chains of the proteins cited; added tags and fusions are not shown.
UniProt P14842, whole entry: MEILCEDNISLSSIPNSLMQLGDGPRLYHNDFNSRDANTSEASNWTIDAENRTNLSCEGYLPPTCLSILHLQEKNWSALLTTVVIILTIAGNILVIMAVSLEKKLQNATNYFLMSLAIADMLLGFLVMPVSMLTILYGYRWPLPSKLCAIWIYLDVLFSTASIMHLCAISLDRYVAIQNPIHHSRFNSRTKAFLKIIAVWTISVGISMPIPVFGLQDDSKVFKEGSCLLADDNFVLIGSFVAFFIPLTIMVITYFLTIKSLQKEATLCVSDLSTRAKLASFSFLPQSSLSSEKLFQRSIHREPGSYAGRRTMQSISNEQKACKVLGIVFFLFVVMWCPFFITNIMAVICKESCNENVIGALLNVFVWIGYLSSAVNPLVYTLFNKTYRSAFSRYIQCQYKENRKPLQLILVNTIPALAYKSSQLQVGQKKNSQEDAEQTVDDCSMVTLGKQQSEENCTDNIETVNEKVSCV

Target: native serotonin 5-HT2A receptors (Rattus norvegicus, UniProt P14842)
Conditions: read-out: Ki 5-HT2A; historical data; ref [4]; cited from earlier work

For O=C(N[C@H]1CC(=O)N(CCCCN2CCN(c3cccc(Cl)c3)CC2)C1=O)C1CCCCC1, the Ki is given as 6.5 nM.
